Source: PMC10610214 (Pharmaceuticals, 2023)

Tested on: MDCKII-MDR1 cells
Settings: apical-to-basal, 2 h

fluorescein isothiocyanate–dextran [FD4, reference compound]
Papp AP: 0.47 ± 0.15 ×10^−5cm/s
